# According to PubChem BioAssay (Tox21):
# Where “and” joins values, the source holds several entries; their conditions need not be identical. Equal values may be shown once. The list shows a part of the results, in another mix than the full data. Results filed as inconclusive are left out. Calls of active or inactive are those of the source. Calls come from the whole dose curve; as a rule, active = well fitted cell-killing curve with a large enough effect in the repeat runs; inconclusive = weak or mixed curves, or effect the other way; inactive = no such curve, though single readings can be large or run the other way.
# Assay: qHTS assay to identify small molecule agonists of the vitamin D receptor (VDR) signaling pathway - cell viability counter screen (AID 743224); note: nearly all actives have a fitted effect of over 50% in size
# Details: VDR-bla HEK293T viability, CellTiter-Glo luminescence, 16 h; at 62.6 µM (top of the series)
# Source text: U.S. Tox21 Program National Center for Advancing Translational Sciences [NCATS] NIH Chemical Genomics Center [NCGC] U.S. Environmental Protection Agency [EPA] National Institutes of Environmental Health Sciences [NIEHS] National Toxicology Program [NTP] U.S. Food and Drug Administration [FDA] Tox21 Assay Overview: The vitamin D receptor (VDR), a member of nuclear hormone receptor superfamily, plays a critical role in calcium homeostasis and bone metabolism. It is also involved in cell differentiation and growth, and thrombogenicity. […] The cytotoxicity of the Tox21 compound library against the VDR-bla cell line was tested in parallel by measuring the cell viability using CellTiter-Glo assay (Promega, Madison, WI) in the same wells.
# Tox21 Assay Protocol Summary: VDR-bla cells were dispensed at 2,000 cells/6 uL/well into black wall/clear-bottom 1536-well plates using a Multidrop Combi (Thermo Fisher Scientific, Waltham, MA) dispenser. After the assay plates were incubated at a 37C and 5% CO2 for 4 h, 23 nL of compounds dissolved in DMSO, positive controls or DMSO only was transferred to the assay plate by a Pintool station (Kalypsys, San Diego, CA). The plates were incubated at 37C and 5% CO2 for 16 h. After 1 uL of LiveBLAzerTM B/G FRET substrate was added using a Bioraptr Flying Reagent Dispenser (FRD) workstation (Beckman Coulter, Indianapolis, IN, USA), the plates were incubated at room temperature for 2 h, and fluorescence intensity was measured by an Envision plate reader (PerkinElmer, Shelton, CT). For cell viability readout that measures cytotoxicity, 3 ul/well of CellTiter-Glo reagent was added into the assay plates using a FRD. After 30 min incubation at room temperature, the luminescence intensity in the plates was measured using a ViewLux (PerkinElmer) plate reader.
# % is set by controls: 0 for no effect and ±100 for the full control effect.
row,SMILES,"activity change, negative = cytotoxicity"
1,C/C1=C2N=C(/C=C3N=C(/C(C)=C4\[N-][C@@](C)([C@@H]5N=C1[C@](C)(CCC(=O)NC[C@@H](C)OP(=O)([O-])O[C@H]1[C@@H](O)[C@@H](n6cnc7cc(C)c(C)cc76)O[C@@H]1CO)[C@H]5CC(N)=O)[C@@](C)(CC(N)=O)[C@@H]4CCC(N)=O)[C@@](C)(CC(N)=O)[C@@H]\3CCC(N)=O)C(C)(C)[C@@H]/2CCC(N)=O.[C-]#N.[Co+3],inactive: 5.83%
2,OCCSCCO,inactive: 13.6%
3,O=[N+]([O-])OCC(CO[N+](=O)[O-])(CO[N+](=O)[O-])CO[N+](=O)[O-],inactive: 14.1%
4,Cc1c([N+](=O)[O-])cccc1[N+](=O)[O-],inactive: 0.462% and inactive: -1.25%
5,CCOP(=O)(CC)OCC,inactive: 1.63%
6,CCOP(=O)(CC)Oc1ccc([N+](=O)[O-])cc1 (stereo not given),inactive: 5.19%
7,COP(C)(=O)OC,inactive: 1.68%
8,O=[N+]([O-])[O-].[NH4+],inactive: 7.18% and inactive: -0.674%
9,Cc1ccc([N+](=O)[O-])c([N+](=O)[O-])c1,inactive: 6.42%
10,CC(C)OP(C)(=O)OC(C)C,inactive: -3.47% and inactive: 0.576%
11,CP(=O)(O)OCCC[Si](O)(O)O,inactive: 12.5%
12,COc1ccc([N+](=O)[O-])cc1[N+](=O)[O-],inactive: 6.62%

# Same assay, conditions: VDR-bla HEK293T viability, CellTiter-Glo luminescence, 16 h; at 81.1 µM (top of the series)
row,SMILES,"activity change, negative = cytotoxicity"
1,N=C(N)N[N+](=O)[O-],inactive: 10.5%
2,OCCSCCO,inactive: 16.4%
3,COP(C)(=O)OC,inactive: 3.81%
4,CCN(CC)CCCl,inactive: 2.71%
5,[NH4+].[O-][Cl+3]([O-])([O-])[O-],inactive: 4.27%
6,Nc1cc([N+](=O)[O-])cc([N+](=O)[O-])c1O,inactive: 0.0211%
7,Cc1ccc([N+](=O)[O-])c([N+](=O)[O-])c1,inactive: 11.2%
8,O=[N+]([O-])c1cccc([N+](=O)[O-])c1,inactive: -18%
